Source: US20240009310A1, “A […] ANTIGEN RECEPTOR CONSTRUCT ENCODING A CHECKPOINT INHIBITORY MOLECULE AND AN IMMUNE STIMULATORY CYTOKINE AND CAR-EXPRESSING CELLS RECOGNIZING CD44v6” (Charité - Universitätsmedizin Berlin, priority 2020, published 2024)

Target: T1, checkpoint protein PD-1 (Homo sapiens, UniProt Q15116)
T1 construct: Jurkat cells expressing GFP under the control of the NFAT promoter; endogenous in cells; host or cells: Jurkat NFAT-GFP reporter cells, co-cultured with U251-PD-L1 cells
Assay: NFAT promoter GFP reporter Jurkat cells exposed to U251-PD-L1 and PHA (checkpoint inhibition)
Type: cell-based
Conditions: U251-PD-L1, increasing PHA, flow cytometry, compared to control vector
From the text: FIG. 2: Checkpoint inhibition by a dominant negative PD1 (dnPD1opt) leads to an improvement in NFAT promoter activity: Jurkat cells expressing GFP under the control of the NFAT promoter were transduced with a dentPD1opt expressing lentiviral vector or a control vector. The cells were then exposed 1 day earlier to a cell line expressing high levels of PD-L1 (U251-PD-L1) in duplicate wells of a 96-well plate with increasing levels of a TCR-linked proliferative signal (phytohemagglutinin: PHA). The number of GFP expressing cells was determined by flow cytometry.
The example relates to experiments that show successful inhibition of the checkpoint protein PD-1 through the dominant negative truncated form of PD-1, dntPD1opt. Jurkat cells expressing GFP under the control of the NFAT promoter (FIG. 2). The Jurkat cells were transduced with a control lentiviral vector or the checkpoint inhibitor (dntPD1opt) encoding lentiviral vector. One day before, these cells were exposed in duplicate in a 96 well plate to a cell line expressing high concentrations of PD-L1 (U251-PD-L1) and an increasing concentration of a TCR mediated T cell stimulus, phytohaemagglutinin (PHA). […] Example 3: The activity IL-15 superagonists (15R15) compared to IL-2 or IL-15

B1: dntPD1opt: dominant negative truncated form of PD-1, checkpoint inhibitor, expressed from lentiviral vector in Jurkat cells (protein)
chain: LDSPDRPWNPPTFSPALLVVTEGDNATFTCSFSNTSESFVLNWYRMSPSNQTDKLAAFPEDRSQPGQDCRFRVTQLPNGRDFHMSVVRARRNDSGTYLCGAISLAPKAQIKESLRAELRVTERRAEVPTAHPSPSPRPAGQFQTLVVGVVGGLLGSLVLLVWVLAVICSRAARG
  number of GFP expressing cells (NFAT promoter): higher for dntPD1opt expressing Jurkat cells compared to the negative control
